Sequences of proteins named here, by UniProt entry; tags and fusion partners are left off. Residues count along the entry.
UniProt O60894, 27-148: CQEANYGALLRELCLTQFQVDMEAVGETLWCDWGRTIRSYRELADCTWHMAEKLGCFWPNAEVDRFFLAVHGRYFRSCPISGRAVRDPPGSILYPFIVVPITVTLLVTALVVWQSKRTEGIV
UniProt Q16602, 23-461: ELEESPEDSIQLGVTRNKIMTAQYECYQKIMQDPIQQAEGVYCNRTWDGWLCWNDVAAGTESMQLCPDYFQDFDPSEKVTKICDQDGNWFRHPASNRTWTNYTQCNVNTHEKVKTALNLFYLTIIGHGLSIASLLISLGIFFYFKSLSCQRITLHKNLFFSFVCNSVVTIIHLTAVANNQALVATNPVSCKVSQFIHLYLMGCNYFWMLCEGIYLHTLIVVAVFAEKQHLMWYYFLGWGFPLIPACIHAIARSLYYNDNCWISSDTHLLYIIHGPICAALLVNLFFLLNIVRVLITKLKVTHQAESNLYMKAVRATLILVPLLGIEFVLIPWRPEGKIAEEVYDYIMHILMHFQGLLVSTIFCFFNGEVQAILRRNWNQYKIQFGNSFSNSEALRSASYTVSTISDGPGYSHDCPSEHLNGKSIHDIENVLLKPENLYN

In patent US10287337B2 (priority 2015, dated 2019):

Assays:
[1] = biological target: T1, human calcitonin CGRP1 (CGRP1) membrane (Homo sapiens, UniProt O60894+Q16602); assay type: binding
T1 construct: purchased Perkin Elmer (Waltham, Mass.)
Experimental: CGRP1 membrane was homogenized in the assay buffer (50 mM Tris-HCl pH 7.4, 5 mM MgCl2, 0.5% BSA, 0.05% Tween20). […] After 1 h of incubation, at room temperature, samples were filtered, using a Tomtec cell harvester, through glass fiber filters that had been presoaked in 0.05% polyethyleneimine and washed with the cold Tris buffer (50 mM Tris-HCl pH7.4). Filters were counted on a betaplate reader (Wallac).

[2] = test system: STZ-induced diabetic pain in rats; assay: Streptozotocin (STZ)-induced diabetic neuropathic pain model; conditions: rat, in vivo
Experimental: Painful peripheral neuropathy is a common secondary complication of diabetes mellitus. Streptozotocin (STZ)-induced diabetic polyneuropathy causes more broad pain and has neurogenic inflammation component in rodents (Bishnoi et al., 2011). Prior to STZ administration, each rat's baseline of thermal and mechanical thresholds on their individual hindpaws were assessed using the Hargreaves thermal pain test, and von Frey mechanical pain test, respectively.
After removing the patches, hindpaw withdrawal latencies induced by continuous and noxious heat (Hargreaves) were assessed at 1 hour post-microneedle application.

For `CSCC[C@H](NC(=O)CNC(=O)CNC(=O)[C@H](CO)NC(=O)[C@H](CCCNC(=N)N)NC(=O)[C@H](CO)NC(=O)[C@H](CC(C)C)NC(=O)[C@H](CC(C)C)NC(=O)CNC(=O)[C@H](C)NC(=O)[C@H](CC(C)C)NC(=O)[C@H](CCCNC(=N)N)NC(=O)[C@H](Cc1c[nH]cn1)NC(=O)[C@@H](NC(=O)[C@@H](N)C(C)C)[C@@H](C)O)C(=O)N[C@H](C(=O)N[C@@H](CCCCN)C(=O)N[C@@H](CO)C(=O)N[C@@H](CC(N)=O)C(=O)N[C@@H](Cc1ccccc1)C(=O)N[C@H](C(=O)N1CCC[C@H]1C(=O)N[C@H](C(=O)N[C@@H](CC(N)=O)C(=O)N[C@H](C(=O)NCC(=O)N[C@@H](CO)C(=O)N[C@@H](CCCCN)C(=O)N[C@@H](C)C(=O)N[C@@H](Cc1ccccc1)C(N)=O)C(C)C)[C@@H](C)O)C(C)C)C(C)C` [CGRP 8-37], the Hill slope [1] was 1.21 ± 0.20 and the “mechanical stimulation withstood relative to prior to STZ injection” value [2] was 55%.
